Among the data in ChEMBL document CHEMBL2073809, “Interrelationship between substrates and inhibitors of human CYP3A and P-glycoprotein” (Pharm Res, 1999) are Activity values, retold here.

The chains behind the UniProt entries cited, without tags or fusion partners.
UniProt P21447, whole entry: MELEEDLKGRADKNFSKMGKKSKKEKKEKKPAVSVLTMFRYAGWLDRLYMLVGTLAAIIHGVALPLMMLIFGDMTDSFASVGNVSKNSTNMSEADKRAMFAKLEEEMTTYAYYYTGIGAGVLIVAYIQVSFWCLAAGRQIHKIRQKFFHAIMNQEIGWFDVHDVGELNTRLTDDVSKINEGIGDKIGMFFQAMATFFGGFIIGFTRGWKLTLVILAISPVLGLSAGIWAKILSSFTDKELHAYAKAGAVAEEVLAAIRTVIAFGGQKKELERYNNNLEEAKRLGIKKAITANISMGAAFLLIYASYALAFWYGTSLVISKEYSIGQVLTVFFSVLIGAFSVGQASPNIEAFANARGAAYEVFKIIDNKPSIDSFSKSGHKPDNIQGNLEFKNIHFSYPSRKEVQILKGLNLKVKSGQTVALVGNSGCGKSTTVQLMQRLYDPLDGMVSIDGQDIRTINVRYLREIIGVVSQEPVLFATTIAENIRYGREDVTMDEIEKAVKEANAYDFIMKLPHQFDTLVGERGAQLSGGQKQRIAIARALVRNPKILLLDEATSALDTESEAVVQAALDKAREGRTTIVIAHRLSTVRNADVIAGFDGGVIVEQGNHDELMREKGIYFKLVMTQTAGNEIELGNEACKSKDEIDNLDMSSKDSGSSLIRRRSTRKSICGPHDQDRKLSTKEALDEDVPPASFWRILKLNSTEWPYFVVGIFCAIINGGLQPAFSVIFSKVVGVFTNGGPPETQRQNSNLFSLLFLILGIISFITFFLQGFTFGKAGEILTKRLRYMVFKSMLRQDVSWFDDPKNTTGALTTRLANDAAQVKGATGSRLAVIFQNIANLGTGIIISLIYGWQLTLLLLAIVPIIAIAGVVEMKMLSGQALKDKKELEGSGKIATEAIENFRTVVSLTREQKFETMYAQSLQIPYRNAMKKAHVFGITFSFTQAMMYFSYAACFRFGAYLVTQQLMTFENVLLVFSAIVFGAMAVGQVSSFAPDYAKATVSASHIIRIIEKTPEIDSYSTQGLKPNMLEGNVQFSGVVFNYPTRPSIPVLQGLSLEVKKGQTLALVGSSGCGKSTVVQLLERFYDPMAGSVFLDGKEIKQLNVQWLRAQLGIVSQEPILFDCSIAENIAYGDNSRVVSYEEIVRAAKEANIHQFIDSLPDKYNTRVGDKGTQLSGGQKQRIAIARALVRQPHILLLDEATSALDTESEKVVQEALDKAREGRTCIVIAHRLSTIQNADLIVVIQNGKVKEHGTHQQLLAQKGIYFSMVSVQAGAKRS

The target of the data set is ATP-dependent translocase ABCB1 (Mus musculus, UniProt P21447). In words: TP_TRANSPORTER: no change in brain concentration in mdr1a(-/-) mouse. It is filed as functional, organism-based. To be noted: in vivo.

As to IVERMECTIN, the Activity result was “is not a substrate [-]”.
